What was measured:
recombinant rat sEH = recombinant rat sEH (Rattus norvegicus, UniProt P80299); assay: fluorescent assay with CMNPC substrate, recombinant rat sEH; format: biochemical; details: read-out: IC50, CMNPC, Rat
recombinant murine sEH = recombinant murine sEH (Mus musculus, UniProt P34914); assay: fluorescent assay with CMNPC substrate, recombinant mouse sEH; format: biochemical; details: read-out: IC50, CMNPC, Mouse

By UniProt entry, the sequences of proteins in these tests, tags left out. Where a name states a change or a piece, a line headed by the entry shows the natural chain unless it says otherwise.
UniProt P80299: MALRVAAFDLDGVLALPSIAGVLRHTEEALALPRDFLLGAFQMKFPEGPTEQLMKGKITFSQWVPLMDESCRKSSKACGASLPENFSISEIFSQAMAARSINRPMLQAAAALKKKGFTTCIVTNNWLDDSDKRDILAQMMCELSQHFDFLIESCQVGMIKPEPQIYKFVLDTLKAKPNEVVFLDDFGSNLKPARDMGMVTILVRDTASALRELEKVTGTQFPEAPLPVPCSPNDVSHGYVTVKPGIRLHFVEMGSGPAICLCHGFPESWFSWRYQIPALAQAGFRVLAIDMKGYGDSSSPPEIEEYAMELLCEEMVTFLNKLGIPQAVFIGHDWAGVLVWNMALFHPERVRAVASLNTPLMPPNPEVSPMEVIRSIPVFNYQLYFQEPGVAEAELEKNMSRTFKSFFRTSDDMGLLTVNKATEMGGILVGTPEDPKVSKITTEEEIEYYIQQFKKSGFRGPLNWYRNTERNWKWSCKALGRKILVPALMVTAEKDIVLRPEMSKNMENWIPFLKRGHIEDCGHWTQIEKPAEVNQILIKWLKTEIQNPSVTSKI
UniProt P34914: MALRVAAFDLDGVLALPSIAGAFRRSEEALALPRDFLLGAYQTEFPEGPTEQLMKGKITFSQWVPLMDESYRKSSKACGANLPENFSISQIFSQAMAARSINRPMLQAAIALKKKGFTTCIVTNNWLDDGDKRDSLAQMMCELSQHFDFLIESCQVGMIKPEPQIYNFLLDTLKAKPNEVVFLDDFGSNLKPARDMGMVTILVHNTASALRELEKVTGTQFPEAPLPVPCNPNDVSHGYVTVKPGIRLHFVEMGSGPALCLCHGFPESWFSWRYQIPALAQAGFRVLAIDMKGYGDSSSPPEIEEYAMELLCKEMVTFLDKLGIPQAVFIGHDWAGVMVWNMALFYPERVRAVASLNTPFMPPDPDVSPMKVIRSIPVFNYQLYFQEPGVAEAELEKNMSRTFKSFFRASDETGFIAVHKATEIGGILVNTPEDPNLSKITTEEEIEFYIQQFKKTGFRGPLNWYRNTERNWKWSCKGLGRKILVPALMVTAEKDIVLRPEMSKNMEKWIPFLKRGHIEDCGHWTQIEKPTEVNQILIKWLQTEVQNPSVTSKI

- IC50 (recombinant rat sEH): 6 nM
- IC50 (recombinant murine sEH): 9 nM
Structure (SMILES): CC(=O)N1CCC(NC(=O)NC23CC4CC(CC(C4)C2)C3)CC1 [compound 14, N-(1-acetylpiperidin-4-yl)-N’-(adamant-1-yl) urea]

— publication PMC3285443 (European Journal of Pharmaceutical Sciences, 2010)
